pIC50: −log10 of the molar value. Where two headings read alike, the source gives them in different places.
Target: human GnRH receptor (Homo sapiens, UniProt P30968)
Test: Test for GnRH receptor antagonistic effect (inhibition of 125I-D-Trp6-LHRH binding)
Protocol: The GnRH receptor antagonistic effects of the compounds of the present invention were evaluated by calculating their concentration that inhibit 50% of the binding of ^125I-D-Trp^6-LHRH to a human GnRH receptor (IC50), according to the description in Patent Reference 1, page 56 “1. Test for GNRH Receptor Antagonistic Effect”.
Accordingly, for confirming the usefulness of “group of —SO2—R^3”, the activities of the compounds of the present invention was compared with those of the comparative compounds having —CO—R^3 group.

The chains behind the UniProt entries cited, without tags or fusion partners.
UniProt P30968, whole entry: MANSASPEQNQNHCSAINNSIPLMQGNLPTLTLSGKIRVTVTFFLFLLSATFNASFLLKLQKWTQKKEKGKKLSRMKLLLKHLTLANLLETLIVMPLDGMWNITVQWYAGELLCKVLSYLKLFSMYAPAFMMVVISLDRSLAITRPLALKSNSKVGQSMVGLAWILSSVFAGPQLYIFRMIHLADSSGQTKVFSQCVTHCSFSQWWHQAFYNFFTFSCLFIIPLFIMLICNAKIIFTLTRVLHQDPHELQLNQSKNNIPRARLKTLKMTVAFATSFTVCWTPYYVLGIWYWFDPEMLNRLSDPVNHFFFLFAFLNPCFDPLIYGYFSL

[1] = read-out: IC50 (concentration that inhibits 50% of the binding of 125I-D-Trp6-LHRH to a human GnRH receptor), Table 1

pIC50 (read-out: IC50 (GnRH receptor binding), SO2-R3 compounds versus comparative CO-R3 compounds, Table 2)	pIC50 [1]	SMILES
8.30	–	NC(N)=NC(=O)c1cccc(C(=O)C(C(=O)c2cc(F)cc(F)c2)=C2Nc3ccccc3N2)c1
–	9.80	CC(=N)NS(=O)(=O)c1cc(C(=O)C(C(=O)c2cccc(F)c2)=C2Nc3ccccc3N2)ccc1F
–	10.04	C[C@@H](O)C(=N)NS(=O)(=O)c1cccc(C(=O)C(C(=O)c2cccc(F)c2)=C2Nc3ccccc3N2)c1
